From US12516130B2, “Single-domain antibody for targeting prostate specific membrane antigen (PSMA)” (NATIONAL INSTITUTE FOR BIOTECHNOLOGY IN THE NEGEV LTD., priority 2019, dated 2026) come the findings set out here.

The subject of assay [1] is PC3-PIP and PC3-flu cells. Nature of the assay: Confocal imaging of NB7cys, DOX and NB7cysDOX internalization. The note with it: 15 min, 1.5 μg/ml DOX or molar equivalent. It counts as cell-based.
A further assay deals with PC3-PIP cells. Nature of the assay: Mitochondrial potential assay (TMRE). It counts as cell-based. The conditions noted are these: 24 h, 1.5 μg/ml DOX or equivalent molar amount.

B1: NB7cys: NB7 with an added cysteine in the C-terminus (protein)
VHH (part 1 of 2): QVQLQESGGGSVQAGGSLRLSCTAPGYTDSNYYMSWFRQAPGKEREWVAGVNTGRGSTSYADSVKGRFTISQDNAKNTMFLQMNSLKPEDTAIYYCAVAACHFCDSLPKTQDEYILWGQGTQVTVSSAAAYPYDVPDYGS
VHH (part 2 of 2): C
modifications: left off: small tags and cut ends
notes: NB7 with an added cysteine in the C-terminus
In the case of B1, the “cellular distribution in PC3-PIP and PC3-flu cells” value in assay [1] is listed as “accumulated only in PC3-PIP cells”. Further, in the assay with PC3-PIP cells, the “mitochondrial membrane potential (TMRE signal)” value is “did not change the TMRE signal”.
